This note sets out measurements from patent publication US20140378378A1, “ERYTHROPOIETIN-DERIVED PEPTIDE AND USE THEREFOR” (priority 2011, published 2014).

The subject of one experiment is cardiomyocytes. In words: Cell survival of cardiomyocytes, MTT assay, 72 hours in PBS free of serum and nutrients, hypoxic condition. The class given is cell-based, Wister rat. The note with it: 0 nM = 100%. Here is the method: An 8 weeks old Wister rat was injected with ketamine and pentobarbital to quickly kill the […], and the heart was quickly separated from the mouse. An aorta was used to perfuse with Ca free Krebs-Henseleit buffer (KHB) solution, which was pre-heated to a temperature of about 34° C. to about 37° C., in heart direction. Thereafter, the KHB solution was switched to Hank's balanced salt solution (HBSS:GIBCO, Grand Island, N.Y.) containing 0.15% class II collagenase (Cooper Biomedical, Malvern, Pa.) and then perfused for about 30 to about 40 minutes. Thereafter, the product obtained therefrom was washed twice with a cell culture medium (Dulbecco's modified Eagle's medium, DMEM). Ventricles and atria were separated therefrom, ventricular tissues were thoroughly chopped and then stirred thoroughly for about 5 minutes in a shaker filled with cell culture medium (DMEM) containing class II collagenase that was pre-heated to a temperature of about 34° C. to about 37° C. Connective tissues that were not dissolved were filtered and a collagenase-containing solution was washed twice with the cell culture medium (DMEM). The product obtained therefrom was gently centrifuged at a speed of 10 g for 2 minutes, a supernatant obtained therefrom was separated and removed, and cell components were washed three times with a cell culture medium (DMEM) solution containing 1% fetal bovine serum (FBS; Sigma Chemical, St. Louis, Mo.). Thereafter, the cells obtained therefrom were stabilized in a cell culture medium (DMEM), 10% FBS, 10 mM N-2-hydroxyethylpiperazine-N′-2-ethanesulfonic acid (HEPES, GIBCO Laboratories, Grand Island, N.Y.), 2 mM L-glutamine, penicilin-stereptomycin (100 IU/mL, GIBCO) for 60 minutes.
Thereafter, the cells were divided in a 6-well plate at a density of 20×10^3 cells/cm^2 and then bromodeoxyuridine (BrdU, 10 uM, Sigma-Aldrich) was added to the cell culture medium over 3 days to prevent the proliferation of fibroblasts and progenitor cells (Lokuta et al, 1994; Miragoli et al., 2006). The cells were cultured in an incubator under conditions of 95% of O2, 5% of CO2, and a temperature of 37° C. for the next experiment.
Cells were seeded in a 96-well plate at a density of 2×10^4 cells/well and 200 ul for each well. In this regard, cell confluence was set at about 70% to about 80%. After 24 hours, when the cells have been stabilized, a 26 gauge or 28 gauge needle was used to remove a preexisting medium from the wells. 200 ul of PBS free of serum and nutrients was added to each well, the wells were divided into erythropoietin (EPO) treatment groups and MKX-2 treatment groups, which were further divided into experimental groups according to concentrations of 0 nM, 0.1 nM, 1 nM, 10 nM, 100 nM, and 1000 nM and then treated with a drug for 72 hours in a hypoxic condition, and then the cells were subjected to an MTT assay to compare cell survival rates. The EPO used was an Eporon injection (Dong-A Pharmaceuticals, Korea). All experimental groups for each concentration included 7 wells.
After a predetermined treatment time, 3-[4,5-dimethylthiazol-2-yl]-2,5-diphenyl tetrazolium bromide (MIT, Sigma, M2128) that was dissolved in a phosphate buffered saline (PBS) and then sterilization filtered by using a membrane filter having a thickness of 0.22 um was added to each well in an amount of 100 ul at a concentration of 1 mg/ml. In this regard, an MTT reagent was used after wrapping the MTT reagent with a foil sheet to block from light. […]
A general note: Formazan colour is commonly taken as a measure of viable cells.

In another experiment the test system is INS-1 β-cells. In words: Cell survival of INS-1 β-cells pre-treated with MKX-2 and then treated with H2O2, MTT assay. The class given is cell-based, rat. Here is the method: HIT-T15 cells (75 to 77 passages), which are from an insulin secretion cell line derived from a hamster, and INS-1 cells (18 to 20 passages), which are from an insulin secretion cell line derived from a rat, were used. A culture medium used for culturing HIT-T15 cells was 10% FBS, 100 units/ml of penicillin, and 100 µg/ml of streptomycin added to RPMI-1640. The culture medium used for culturing INS-1 cells was 10% FBS and 1 mM pyruvate, 10 mM HEPES, 50 mM 2-mercaptoethanol, 100 units/ml penicillin, 100 µg/ml of streptomycin mixed in RPMI-1640. Two β-cell lines were cultured in conditions in which 95% humidity was maintained at a temperature of 37° C. and included 5% CO2. When cell confluence reached about 70% to about 80%, the cells were washed with PBS and then treated with 0.05% trypsin-EDTA to subculture the cells.
β-cells were divided into wells in a 24-well plate at a concentration of 1×10^5 cells/well and the β-cells were cultured for 24 hours such that a cell confluence reached about 70% to about 80%. After 24 hours, a pre-existing medium was removed and then replaced with RPMI-1640 including 0.5% FBS, cultured for 6 hours, and then the β-cells were inhibited from proliferation and differentiation. MKX-2 was dissolved in DMSO and then was used to pre-treat the β-cells at concentrations of 0 ng/ml, 0.12 ng/ml, 1.2 ng/ml, 12 ng/ml, 60 ng/ml, and 120 ng/ml, 1 hour prior to a H2O2 treatment. A control group was treated with DMSO at 0.001% to be compared to the treatment group. 1 hour after an MKX-2 treatment, a H2O2 treatment was performed for about 2 hours or about 4 hours. […] An absorbance value was quantitatively analyzed to calculate a cell growth inhibition rate
As described above, HIT-T15 and INS-1 cells, which are β-cells of islets of Langerhans, were seeded at a density of 1×10^5 cells/well for each well in a 24-well plate, which were then stabilized, and a preexisting medium was carefully removed therefrom on the day of the experiment, including even a miniscule amount of medium that remained after the removal. Thereafter, RPMI-1640 medium including 0.5% FBS was used to culture the β-cells for 6 hours and stop proliferation and differentiation of the β-cells. An MKX-2 treatment group and a control group only including the same amount of DMSO, which was used to dissolve MKX-2, were prepared. Thereafter, the MKX-2 treatment group was treated with in amounts of 0 ng/ml, 0.12 ng/ml, 1.2 ng/ml, 12 ng/ml, 60 ng/ml, and 120 ng/ml and then the β-cells were treated with H2O2 (100 M) for about 2 hours to about 4 hours to put the β-cells under stress, and then an MTT assay was used to compare cell survival rates.

A further experiment has as its system retinal neurocytes. The conditions noted are these: 0.1 nM and 1 nM, 72 hours.

As for `CC[C@H](C)[C@H](N)C(=O)N[C@@H](CO)C(=O)NCC(=O)N[C@@H](CC(C)C)C(=O)N[C@@H](CCCNC(=N)N)C(=O)N[C@@H](CO)C(=O)N[C@@H](CC(C)C)C(=O)N[C@H](C(=O)N[C@H](C(=O)N[C@@H](CC(C)C)C(=O)N[C@@H](CC(C)C)C(=O)N[C@@H](CCCNC(=N)N)C(=O)N[C@@H](C)C(=O)N[C@@H](CC(C)C)C(=O)NCC(=O)N[C@@H](C)C(=O)N[C@@H](CCC(N)=O)C(=O)N[C@@H](CCCCN)C(=O)N[C@@H](CCC(=O)O)C(=O)N[C@@H](CC(C)C)C(=O)N[C@@H](CCSC)C(=O)O)[C@@H](C)O)[C@@H](C)O` [MKX-2], the “cell survival rate compared with 0 nM” value in the experiment on cardiomyocytes (0.1 nM) is listed as “not substantially different”. Besides, in the experiment with cardiomyocytes (1 nM), the “cell survival rate compared with the initial condition” value was “substantially decreased”. Moreover, the cell survival rate in the experiment with cardiomyocytes (10 nM) is 102.67 ± 3.22%; in the experiment on cardiomyocytes (100 nM) it was 112.28 ± 2.17%; in the experiment on cardiomyocytes (1000 nM), 115.05 ± 0.90%; with INS-1 β-cells (60 ng/ml, H2O2 treatment for 2 hours), 86.4%+4.79; in the experiment with INS-1 β-cells (60 ng/ml, H2O2 treatment for 4 hours), 64.39%+1.65; with INS-1 β-cells (120 ng/ml, H2O2 treatment for 2 hours) it was 95.0%+4.53. Besides, the cell survival rate with INS-1 β-cells (120 ng/ml, H2O2 treatment for 4 hours) was found to be 83.60%+5.76. Also, in the experiment with INS-1 β-cells (0.12 ng/ml and 1.2 ng/ml, H2O2 treatment for 2 hours or 4 hours), the “cell survival rate compared to non-MKX-2 treatment group” value was “did not show a statistically significant difference”. The “increase of cell survival rate compared to 0 nM” value in the experiment with retinal neurocytes is on record as “without any statistical significance”.
